Experimental data: patent US8962880B2, “Amorphous asiatic tromethamine salt and preparation method thereof” (Shanghai Institute of Pharmaceutical Industry, priority 2011, dated 2015)

Conditions: in vivo, 50 mg

Which bioavailability does the source give for `C[C@H]1[C@H](C)CC[C@]2(C(=O)O)CC[C@]3(C)C(=CC[C@@H]4[C@@]5(C)C[C@@H](O)[C@H](O)[C@@](C)(CO)[C@@H]5CC[C@]43C)[C@H]12.NC(CO)(CO)CO` [amorphous asiatic tromethamine salt] here?
Its bioavailability is “ca. 10.4%”.
